Curated experimental data: water solubility values

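The numbers are reported measurements, compiled and curated for the OPERA QSAR suite. One number stands for a compound and property, with no spread given. Method and conditions are not stated for these values. Where a salt, mixture or single isomer is drawn, the source does not say that exactly this form was tested. Some entries may be limits or estimates that an upstream database listed as plain numbers.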

Solubility in water is on a log10 molar scale (set defined at 25 °C).

{"smiles": "OC(Cc1ccccc1Cl)(CN1NCNC1=S)C1(Cl)CC1", "stereo": "configuration not stated", "log S (log10 mol/L)": "-5.124"}
{"smiles": "FCOC(C(F)(F)F)C(F)(F)F", "name": "Sevoflurane", "log S (log10 mol/L)": "-2.131"}
{"smiles": "COc1cnc2cncnc2n1", "log S (log10 mol/L)": "-0.91"}
{"smiles": "Clc1cccc(Cl)c1NC1=NCCN1", "name": "Clonidine", "log S (log10 mol/L)": "-0.1"}
{"smiles": "Nc1ncn([C@@H]2O[C@H](CO)[C@@H](O)[C@H]2O)c(=O)n1", "name": "5-Azacytidine", "log S (log10 mol/L)": "-1.305"}
{"smiles": "NC[C@H](O)CC[C@H](N)C(=O)O", "name": "L-Hydroxylysine", "log S (log10 mol/L)": "-0.848"}
{"smiles": "Nc1[nH]c(=O)ncc1I", "name": "5-Iodocytosine", "log S (log10 mol/L)": "-2.4"}
{"smiles": "Cc1ccc(CC(=O)O)c(C)c1", "name": "2,4-Dimethylphenylacetic acid", "log S (log10 mol/L)": "-2.389"}
{"smiles": "NS(=O)(=O)c1cc2c(s1)C(=O)CCS2", "name": "7-Oxo-6,7-dihydro-5H-thieno[3,2-b]thiopyran-2-sulfonamide", "log S (log10 mol/L)": "-3.494"}
{"smiles": "Nc1ccc2cccc(S(=O)(=O)O)c2c1", "name": "Badische acid", "log S (log10 mol/L)": "-2.571"}
{"smiles": "CNC(=O)c1ccccc1", "name": "N-Methylbenzamide", "log S (log10 mol/L)": "-0.921"}
{"smiles": "CCCCCCCC/C=C\\CCCCCCCC(=O)OCC(COC(=O)CCCCCCC/C=C\\CCCCCCCC)OC(=O)CCCCCCC/C=C\\CCCCCCCC", "name": "Glyceryl trioleate", "log S (log10 mol/L)": "-7.248"}
{"smiles": "COc1ccc([C@@H]2OC[C@H]3[C@@H]2CO[C@@H]3c2ccc(O[C@@H]3O[C@H](CO)[C@@H](O)[C@H](O)[C@H]3O)c(OC)c2)cc1OC", "name": "Phillyrin", "log S (log10 mol/L)": "-3.126"}
{"smiles": "O=C(O)c1ccccc1C(=O)OCCOC(=O)c1ccccc1C(=O)O", "name": "2,2'-[1,2-Ethanediylbis(oxycarbonyl)]dibenzoic acid", "log S (log10 mol/L)": "-2.828"}
{"smiles": "CCCCC(CC)COC(=O)CC(CC(=O)OCC(CC)CCCC)(OC(C)=O)C(=O)OCC(CC)CCCC", "stereo": "configuration not stated", "name": "Acetyl tris(2-ethylhexyl) citrate", "log S (log10 mol/L)": "-7.058"}
{"smiles": "CC1(C)S[C@@H]2[C@H](NC(=O)COc3ccccc3)C(=O)N2[C@H]1C(=O)O", "name": "Penicillin V", "log S (log10 mol/L)": "-2.716"}
{"smiles": "CCCCCCCCC=CCCCCCCCC1=NCCN1CCO", "name": "2-(8-Heptadecenyl)-2-imidazoline-1-ethanol", "log S (log10 mol/L)": "-3.846"}
{"smiles": "CC(C)(C)NC[C@H](O)COc1cccc2c1CCCC2=O", "name": "Levobunolol", "log S (log10 mol/L)": "-3.065"}
{"smiles": "CCCSc1nc(N[C@@H]2C[C@H]2c2ccc(F)c(F)c2)c2nnn([C@@H]3C[C@H](OCCO)[C@@H](O)[C@H]3O)c2n1", "name": "Ticagrelor", "log S (log10 mol/L)": "-3.919"}
{"smiles": "Nc1ccc(N=Nc2ccc(N)c3ccccc23)cc1", "name": "1-Naphthalenamine, 4-[(4-aminophenyl)azo]-", "log S (log10 mol/L)": "-6.52"}
{"smiles": "COC[C@H]1O[C@@H](OC2OC[C@@H]3O[C@]4(O[C@H]3[C@H]2OC(=O)C(C)C)O[C@H](C)[C@@](O)(C(C)=O)[C@@H]2OCO[C@H]24)[C@@H](OC)[C@@H](O)[C@@H]1O[C@@H]1O[C@H](C)[C@H](OC)[C@H](O[C@H]2C[C@@]3(C)OC4(C[C@@H](O)[C@H](O[C@H]5C[C@@H](O)[C@H](OC(=O)c6c(C)c(Cl)c(O)c(Cl)c6OC)[C@@H](C)O5)[C@@H](C)O4)O[C@@H]3[C@@H](C)O2)[C@H]1O", "stereo": "stereo partly drawn", "name": "Avilamycin", "log S (log10 mol/L)": "-3.15"}
{"smiles": "CC(C)(C)NC(=O)[C@H]1CC[C@H]2[C@@H]3CC[C@H]4NC(=O)C=C[C@]4(C)[C@H]3CC[C@]12C", "log S (log10 mol/L)": "-5.275"}
{"smiles": "CCCCNC(=O)Nc1c(C)n(C)n(-c2ccccc2)c1=O", "log S (log10 mol/L)": "-1.629"}
{"smiles": "Fc1ccc(Br)cc1", "name": "1-Bromo-4-fluorobenzene", "log S (log10 mol/L)": "-2.956"}
{"smiles": "CC(SC(=O)c1cccs1)C(=O)NCC(=O)O", "stereo": "configuration not stated", "name": "Stepronin", "log S (log10 mol/L)": "-3.112"}
{"smiles": "O=C1c2ccccc2C(=O)C1c1nc2ccccc2c(Br)c1O", "name": "C.I. Disperse Yellow 64", "log S (log10 mol/L)": "-4.867"}
{"smiles": "Nc1nc(=O)[nH]c2nccnc12", "name": "4-Amino-2(1H)-pteridinone", "log S (log10 mol/L)": "-3.359"}
{"smiles": "O=C(O)CCc1nc(-c2ccccc2)c(-c2ccccc2)o1", "name": "Oxaprozin", "log S (log10 mol/L)": "-3.955"}
{"smiles": "CC(=O)[C@@H]1C[C@H](C(=O)O)C1(C)C", "name": "(1S,3R)-3-acetyl-2,2-dimethylcyclobutane-1-carboxylic acid", "log S (log10 mol/L)": "-1.085"}
{"smiles": "CCCCNC(=O)NS(=O)(=O)c1ccc(N)cc1", "name": "Carbutamide", "log S (log10 mol/L)": "-2.18"}
{"smiles": "COCCN(CCOC)C(=O)COC(=O)c1ccccc1", "name": "2-[Bis(2-methoxyethyl)amino]-2-oxoethyl benzoate", "log S (log10 mol/L)": "-1.072"}

Repeated from above, the 5 entries with the highest log S:

{"smiles": "Clc1cccc(Cl)c1NC1=NCCN1", "name": "Clonidine", "log S (log10 mol/L)": "-0.1"}
{"smiles": "NC[C@H](O)CC[C@H](N)C(=O)O", "name": "L-Hydroxylysine", "log S (log10 mol/L)": "-0.848"}
{"smiles": "COc1cnc2cncnc2n1", "log S (log10 mol/L)": "-0.91"}
{"smiles": "CNC(=O)c1ccccc1", "name": "N-Methylbenzamide", "log S (log10 mol/L)": "-0.921"}
{"smiles": "COCCN(CCOC)C(=O)COC(=O)c1ccccc1", "name": "2-[Bis(2-methoxyethyl)amino]-2-oxoethyl benzoate", "log S (log10 mol/L)": "-1.072"}

From the experimental data distributed with OPERA 2.9.